Nrf2 ARE act – Nrf2 pathway activation | AID 624171 | actives 0.31% (n = 410,000) | Potency, µM (top dose mostly 46.1 µM), inactives show top-dose activation, most hits filed as activators | AREc32 ARE-luciferase reporter (MCF7-derived line), luminescence, 24 h; also: potency is read from the fitted curve at half-maximal effect; % of control where 0% means no effect; nearly all actives have a fitted effect of over 65% in size
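Reporter line AREc32 (ARE-Fluc), seeded overnight in OPTI-MEM with 5% FBS; compound pin-transferred, 24 hr at 37 deg C, 5% CO2; luminescent read-out.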
miR-21 FLuc – miR-21 reporter, rising signal; HeLa miR-21 FLuc reporter, luciferase, 48 h; Potency, µM (titrated, usually from 38.3 µM), for the others: at the top dose reporter change, positive = more light; 340,000 tested, under 10 active; AID 2288; active = well fitted rising curve with a large enough effect; inconclusive = small, poorly fitted or top-dose-only effect; inactive = no such curve, though single readings can be large or run the other way;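 also: % of control where 0% means no effect; miR-21 action dims this reporter so a rising signal means less miR-21 action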
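HeLa cells stably expressing CMV-driven firefly luciferase with a downstream miR-21 binding sequence, endogenously expressing miR-21, were treated with titrations (up to about 40uM final) for 48 hours at 37 degree Celsius. Luciferase luminescence was read after lysis.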
A549 viability – A549 cytotoxicity, counter-screen for Nrf2 inhibitors; A549 ARE-Fluc cells, CellTiter-Fluor viability, 18-24 h; Potency, µM (top dose mostly 46 µM), without a hit: top-dose activity change, negative = cytotoxicity, most hits filed as inhibitors; actives 0.16% (n = 390,000); AID 504648; also: potency is read from the fitted curve at half-maximal effect; % is scaled to controls: 0 for no effect and ±100 for the full control effect
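A549 ARE-Fluc cells in 5% FBS OPTI-MEM, 5000 cells/well, rested 2 h then exposed to compounds in concentration-response for 18-24 h at 37 °C. Viability by CellTiter-Fluor fluorescence (Ex 405/Em 525) after 30 min; luciferase luminescence (BugLite, 15 min, RT) read afterwards.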
Mito fusion yeast – mitochondrial division inhibition or fusion activation | actives 0.23% (n = 320,000) | S. cerevisiae fusion-defective mutant growth rescue, CellTiterGlo 48 h | Potency, µM (top dose mostly 46.1 µM), for the others: top-dose growth rescue (activation), usual class: activators; also: potency is read from the fitted curve at half-maximal effect; % of control where 0% means no effect; nearly all actives have a fitted effect of over 45% in size
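Compounds are tested for their ability to restore growth of mitochondrial fusion-defective yeast strains at non-permissive 37C in YPEG medium over 48 hours. Viability is quantified by luciferase luminescence.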
Nrf2 block – blocks Nrf2 signaling. Potency, µM (series often up to 46 µM), for the others: at the highest dose activity change, negative = inhibition, most hits filed as inhibitors. A549 ARE-Fluc reporter, luciferase luminescence, 18-24 h. actives 2.1% (n = 360,000); also: potency is read from the fitted curve at half-maximal effect; % is scaled to controls: 0 for no effect and ±100 for the full control effect; nearly all actives have a fitted effect of over 60% in size
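Nrf2 activity is the BugLite luminescence, read 15 min after reagent at room temperature, following CellTiter-Fluor cytotoxicity readout (30 min, 37C). Compound titrations were applied for 18-24 h to 5000 A549 ARE_Fluc cells/well in 5% FBS OPTI-MEM.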
Active calls of the source: *. Hits are enriched below; roughly 2.3% of the tested compounds scored in any of these assays. Unless noted, calls follow the shape of the dose curve; as a rule, active = well fitted curve in the direction sought with a large enough effect; inconclusive = small, poorly fitted or top-dose-only effect, or another doubt; inactive = no such curve, though single readings can be large; an effect the other way counts as inactive or inconclusive.

For CNC(=S)N1CCN(c2nc(-c3ccc(Cl)cc3)cs2)CC1 the results were Nrf2 ARE act 0%, miR-21 FLuc 14%, A549 viability -13%, Mito fusion yeast 1% and Nrf2 block 18µM*.
Screening COc1c(Cl)cc(Cl)cc1C(=O)Nc1cccc(-c2nc3ccccc3o2)c1C returned Nrf2 ARE act -1%, miR-21 FLuc 1%, A549 viability 15% and Nrf2 block 4%.
Screening O=C(NCc1ccc(Cl)cc1)c1cnc2sc(N3CCOCC3)nn2c1=O returned Nrf2 ARE act 0%, miR-21 FLuc -7%, A549 viability 2% and Nrf2 block inconclusive.
Screening O=C1C(NS(=O)(=O)c2cccs2)=C(N2CCN(c3cccc(C(F)(F)F)c3)CC2)C(=O)c2ccccc21 returned Nrf2 ARE act 21%, miR-21 FLuc 8%, A549 viability inconclusive, Mito fusion yeast 12% and Nrf2 block 21µM*.
`CC(C)Oc1ccc(CNC(=O)c2ccc3c(c2)N(Cc2ccc(F)cc2)CCS3)cc1` gave Nrf2 ARE act 4%, miR-21 FLuc 0%, A549 viability -3% and Nrf2 block inconclusive.
O=C(COC(=O)/C=C/c1ccccc1[N+](=O)[O-])Nc1ccc2[nH]c(=O)[nH]c2c1 was read as Nrf2 ARE act 11µM*, A549 viability 2% and Nrf2 block -1%.
Screening O=C(COC(=O)/C=C/c1ccccc1[N+](=O)[O-])Nc1ccc(OC(F)F)cc1 returned Nrf2 ARE act 1%, miR-21 FLuc 2%, A549 viability -4%, Mito fusion yeast -2% and Nrf2 block 7%.
For COCCCNC(=S)Nc1cccc2ncccc12 the results were Nrf2 ARE act -3%, miR-21 FLuc 1%, A549 viability -2%, Mito fusion yeast -3% and Nrf2 block 13µM*.
`O=C(NC(=S)Nc1cccc2ncccc12)c1ccco1` gave Nrf2 ARE act 8%, miR-21 FLuc -2%, A549 viability 1%, Mito fusion yeast 2% and Nrf2 block 13%.
CCSc1nn(CC(=O)Nc2ccc(C(=O)OC)cc2)c(N)c1S(=O)(=O)c1ccc(C)cc1 was read as Nrf2 ARE act 0%, miR-21 FLuc 20%, A549 viability -15% and Nrf2 block 23µM*.

Among those listed so far, these have fluorine:
Screening O=C1C(NS(=O)(=O)c2cccs2)=C(N2CCN(c3cccc(C(F)(F)F)c3)CC2)C(=O)c2ccccc21 returned Nrf2 ARE act 21%, miR-21 FLuc 8%, A549 viability inconclusive, Mito fusion yeast 12% and Nrf2 block 21µM*.
`CC(C)Oc1ccc(CNC(=O)c2ccc3c(c2)N(Cc2ccc(F)cc2)CCS3)cc1` gave Nrf2 ARE act 4%, miR-21 FLuc 0%, A549 viability -3% and Nrf2 block inconclusive.
Screening O=C(COC(=O)/C=C/c1ccccc1[N+](=O)[O-])Nc1ccc(OC(F)F)cc1 returned Nrf2 ARE act 1%, miR-21 FLuc 2%, A549 viability -4%, Mito fusion yeast -2% and Nrf2 block 7%.

(more compounds)
For CSc1nn(CC(=O)Nc2cc(C)ccc2C)c(N)c1S(=O)(=O)c1ccccc1 the results were Nrf2 ARE act 0%, miR-21 FLuc 15%, A549 viability -4% and Nrf2 block 21µM*.
CSc1nn(CC(=O)Nc2ccccc2F)c(N)c1S(=O)(=O)c1ccccc1 was read as Nrf2 ARE act 0%, miR-21 FLuc 10%, A549 viability 2% and Nrf2 block inconclusive.
Screening CCOC(=O)c1ccc(NC(=O)Cn2nc(SC)c(S(=O)(=O)c3ccc(Cl)cc3)c2N)cc1 returned Nrf2 ARE act -3%, miR-21 FLuc inconclusive, A549 viability -10% and Nrf2 block inconclusive.
Screening COc1ccc(S(=O)(=O)Nc2cccc(-c3ccc(N4CCCC4)nn3)c2)cc1F returned Nrf2 ARE act 14%, miR-21 FLuc -18% and A549 viability -9%.
`COc1ccc(S(=O)(=O)c2c(O)c(C)cc(NS(=O)(=O)c3ccc(Cl)cc3)c2C(C)C)cc1` gave Nrf2 ARE act 4%, miR-21 FLuc 28%, A549 viability -12% and Nrf2 block inconclusive.
`O=S(=O)(c1ccccc1)N1CCN(c2ccnc3cc(Cl)ccc23)CC1` gave Nrf2 ARE act 2%, miR-21 FLuc 26%, A549 viability -19%, Mito fusion yeast inconclusive and Nrf2 block 23µM*.
Screening Cc1cc(N2CCN(S(=O)(=O)c3ccccc3)CC2)c2ccccc2n1 returned Nrf2 ARE act 0%, miR-21 FLuc 15%, A549 viability -17%, Mito fusion yeast 6% and Nrf2 block 21µM*.
`CC(C)Nc1nc(C#N)nc(Nc2ccccc2)n1` gave A549 viability -1% and Nrf2 block 19%.
`Cc1cc(Nc2cccc([N+](=O)[O-])c2)n2c(nc3ccccc32)c1C#N` gave Nrf2 ARE act 4%, miR-21 FLuc 17%, A549 viability inconclusive, Mito fusion yeast -2% and Nrf2 block 10µM*.
For COc1ccc(C(=O)O/N=C(/C)c2cccs2)cc1 the results were Nrf2 ARE act 18µM*, miR-21 FLuc 1%, A549 viability 10% and Mito fusion yeast -9%.
For N/C(=N\OC(=O)c1ccc(Br)cc1)c1ccccc1 the results were Nrf2 ARE act 8.9µM*, miR-21 FLuc -42%, A549 viability 3% and Mito fusion yeast 13%.
Screening N/C(=N\OC(=O)c1cccc(Br)c1)c1ccc(Br)cc1 returned Nrf2 ARE act inconclusive, miR-21 FLuc -9%, A549 viability 0%, Mito fusion yeast 7% and Nrf2 block 26%.
COc1ccc(C(=O)O/N=C(\C)c2nccs2)cc1 was read as Nrf2 ARE act 3%, miR-21 FLuc 1%, A549 viability 19%, Mito fusion yeast -9% and Nrf2 block inconclusive.
Screening COc1ccc(C(=O)O/N=C(\N)c2ccccc2)cc1 returned Nrf2 ARE act -1%, miR-21 FLuc -33%, A549 viability 0%, Mito fusion yeast -6% and Nrf2 block inconclusive.
For N/C(=N\OC(=O)c1ccco1)c1ccccc1 the results were Nrf2 ARE act 18µM*, miR-21 FLuc -62%, A549 viability -15%, Mito fusion yeast 1% and Nrf2 block inconclusive.
`COc1ccc(C(=O)O/N=C(\N)c2ccc(Br)cc2)cc1` gave Nrf2 ARE act 6%, miR-21 FLuc -32%, A549 viability 6%, Mito fusion yeast 10µM* and Nrf2 block inconclusive.
CCOc1ccccc1N(CC)C(=O)Cn1ncc2c1-c1ccccc1OC2 was read as Nrf2 ARE act 9%, miR-21 FLuc -2%, A549 viability 1% and Nrf2 block 6%.
Screening Clc1cccc(OCc2nc(-c3ccncc3)n[nH]2)c1 returned Nrf2 ARE act 0%, miR-21 FLuc 2%, A549 viability -1%, Mito fusion yeast 3% and Nrf2 block 21µM*.
Screening Cc1ccc(-n2nc(CO)c(C(=O)NCc3cccnc3)n2)cc1C returned Nrf2 ARE act 4%, miR-21 FLuc 27%, A549 viability -5% and Nrf2 block -6%.
COc1ccccc1NC(=O)Nc1nc(CC(=O)N2CCN(c3ccccc3)CC2)cs1 was read as Nrf2 ARE act 2%, A549 viability -15%, Mito fusion yeast -19% and Nrf2 block 7.3µM*.
`COc1ccc(N2CCN(C(=O)Cc3csc(NC(=O)Nc4ccccc4OC)n3)CC2)cc1` gave Nrf2 ARE act 2%, A549 viability -14%, Mito fusion yeast 4% and Nrf2 block inconclusive.
For COc1cc(-c2ccno2)ccc1S(=O)(=O)N1CCN(c2cc(C)ccc2C)CC1 the results were Nrf2 ARE act 1%, miR-21 FLuc 8% and A549 viability -7%.
